Results published in US20210260101A1, “POTENTIATED ANTIBIOTIC COMPOSITIONS AND METHODS OF USE FOR TREATING BACTERIAL INFECTIONS AND BIOFILMS” (priority 2018, published 2021).

Test system: primary human renal proximal tubule epithelial cells (hRPTECs)
Test: In vitro nephrotoxicity assay (LDH release)

Question: Which results are given for colistin?
Answer: release of LDH (at 62 μg/mL, hRPTECs): 26%; nephrotoxicity (LDH assay) (at 63 μg/mL): > 20%
